For 74 compounds, activation results are on record in PubChem BioAssay AID485358 (National Center for Advancing Translational Sciences (NCATS), 2010).

Amino acid sequences for entries named in this document (tags omitted).
UniProt P14416, whole entry: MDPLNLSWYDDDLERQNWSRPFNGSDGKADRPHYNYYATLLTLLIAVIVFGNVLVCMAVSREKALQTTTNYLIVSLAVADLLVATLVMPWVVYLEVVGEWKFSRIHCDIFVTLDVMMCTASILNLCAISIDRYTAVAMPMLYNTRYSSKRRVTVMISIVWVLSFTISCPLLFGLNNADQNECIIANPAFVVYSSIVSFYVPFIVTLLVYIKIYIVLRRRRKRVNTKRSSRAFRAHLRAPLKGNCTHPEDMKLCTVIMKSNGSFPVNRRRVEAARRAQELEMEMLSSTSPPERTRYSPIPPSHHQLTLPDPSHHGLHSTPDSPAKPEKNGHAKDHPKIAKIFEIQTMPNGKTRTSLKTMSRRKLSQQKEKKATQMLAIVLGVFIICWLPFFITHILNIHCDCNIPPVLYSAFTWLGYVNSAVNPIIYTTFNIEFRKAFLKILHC

This is a selection; strong and weak results do not stand in their true shares. Activity calls are given as the source filed them.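 Rule for the calls: active = activation over 3 SD above normal in the single-dose calcium agonist read (cut at about 30% in these data); inactive = the rest.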

The target in this assay is D(2) dopamine receptor (Homo sapiens) (UniProt P14416). The assay can be described thus: HTS Assay for Allosteric Agonists of the Human D2 Dopamine Receptor: Primary Screen for Agonists. Note: 0% is about no effect. Particulars: HEK293 T-REx D2 cells, calcium flux agonist mode; at 2 µM; active compounds read high. From the text:
NIH Chemical Genomics Center [NCGC] NIH Molecular Libraries Probe Centers Network [MLPCN] MLPCN Grant: NS064831-01 Assay Submitter (PI): David Sibley Dopamine receptors (DARs) are involved in the etiology and/or therapy of a number of neuropsychiatric and endocrine disorders. For instance, all receptor-based antiparkinsonian drugs work via stimulating the D2 DAR subtype whereas all FDA-approved antipsychotic agents are antagonists of this receptor. […] There are three different types of allosteric modulators that we are seeking, two of which will stimulate or augment receptor signaling, allosteric agonists and potentiators, while the third, allosteric antagonists, will attenuate receptor signaling. The present primary screening assay measures compound agonism by tracking calcium flux in a […], inducible Hek293 Trex D2 cell line.
Freshly passaged cells are plated in 1536 well black, clear bottom plates at a density of 4000 cells/well in 3 ul of complete media containing 1x tetracycline inducer. After an overnight incubation at […] in 5% CO2, cells are loaded with 2 ul of the no wash Calcium Assay Kit (ABD Bioquest) and incubated at room temperature for 30 to 90 minutes. Agonist read: A 10 cycle (1 second/cycle) baseline measurement is taken and then the FDSS online 1536 pintool delivers 23 nl of compound library (as well as dopamine controls) to the plate. The plate is measured for kinetically at 1 cycle/sec for 180 seconds and is considered to be the agonist portion of the assay (eg, compounds which activate a positive calcium response during this portion are flagged as potential agonists). Following the 180 second read, 1 ul of either an EC20 (positive modulation assay) or EC80 (negative modulation assay) is delivered by an onboard pipette head. Measurements are taken kinetically for an additional 180 seconds.
Turning to `CP(=O)(Nc1ccccc1F)Oc1ccccc1` (centres undefined), the activation is inactive: -0.803%.

As for `CC(C)c1ccc(OP(C)(=O)Nc2ccc(SC(F)(F)F)cc2)cc1` (centres undefined), the activation is inactive: 3.68%.

In the case of `O=C(OCCN1CCN(CCOCc2ccccc2)CC1)C(O)(c1ccccc1)c1ccccc1`, the activation is inactive: -0.344%.

On to `COc1ccc(OP(C)(=O)Nc2ccc(SC(F)(F)F)cc2)cc1` (centres undefined), for which the activation is inactive: 0.86%.

On to `CP(=O)(Nc1ccccc1)Oc1ccc(F)cc1` (centres undefined), for which the activation is inactive: 0.287%.

As to `CCCCCOc1ccc(NP(C)(=O)Oc2ccc(Cl)cc2Cl)cc1` (centres undefined), the activation was inactive: 0.188%.

For the compound `COc1ccc(OP(C)(=O)Nc2cccc(Br)c2)cc1` (centres undefined), the activation is inactive: -0.468%.

With `CN(C)CCOC(=O)C(O)(c1ccccc1)C1CCCCC1` (centres undefined), the activation is inactive: 0.766%.

For the compound `COc1ccc(NP(C)(=O)Oc2ccccc2OC)cc1` (centres undefined), the activation is inactive: -0.124%.

Consider `O=[N+]([O-])c1ccc(OP2(=O)COCCO2)cc1` (centres undefined), for which the activation was inactive: 0.827%.

Consider `Cc1cc(-c2cccc3ccccc23)c(C)cn1.O=[N+]([O-])c1cc([N+](=O)[O-])c(O)c([N+](=O)[O-])c1`, for which the activation was inactive: 0.325%.

Consider `CP(=O)(Nc1ccc(SC(F)(F)F)cc1)Oc1ccc(F)cc1` (centres undefined), for which the activation was inactive: 0.426%.

As to `Cc1ccccc1NP(C)(=O)Nc1ccccc1C`, the activation was inactive: -0.587%.

Regarding `CCN(CC)CC(O)COC(=O)C(O)(c1ccccc1)C1CCCCC1` (centres undefined), the activation is inactive: 0.0243%.

As to `COc1ccc(OP(C)(=O)Nc2ccc(Br)cc2)cc1` (centres undefined), the activation was inactive: 0.441%.

For `COc1ccccc1OP(C)(=O)Nc1c(C)n(C)n(-c2ccccc2)c1=O` (centres undefined), the activation is inactive: 0.153%.

For `O=C(OCCCN1CCCC1)C(O)(c1ccccc1)C1CCCCC1` (centres undefined), the activation is inactive: -1.81%.

With `CP(=O)(Oc1ccccc1)N1CCOC1=O` (centres undefined), the activation was inactive: 0.613%.

`CCc1ccc(OP(C)(=O)Nc2cccnc2)cc1` (centres undefined): the activation was inactive: -0.35%.

On to `COc1ccccc1OP(C)(=O)Nc1ccccc1Br` (centres undefined), for which the activation is inactive: -1.02%.

As for `CC(C)(C)c1ccc(OP(C)(=O)O)cc1`, the activation is inactive: -0.045%.

In the case of `CP(=O)(Nc1ccc(Cl)cc1)Oc1ccc(F)cc1` (centres undefined), the activation was inactive: 0.318%.

Regarding `CN(C)C(=O)c1c([N+](=O)[O-])cc([N+](=O)[O-])cc1[N+](=O)[O-]`, the activation is inactive: -0.333%.

Take `CCOC(=O)c1ccc(NP(C)(=O)Oc2ccc(Cl)cc2)cc1` (centres undefined): the activation was inactive: -1.53%.

As to `CP(=O)(OC12CC3CC(CC(C3)C1)C2)OC12CC3CC(CC(C3)C1)C2`, the activation is inactive: 5.12%.

On to `Cc1cc(C)cc(OP(C)(=O)Nc2cccc(C(F)(F)F)c2)c1` (centres undefined), for which the activation is inactive: -0.578%.

Turning to `COc1ccccc1OP(C)(=O)Nc1ccc(C)c(C)c1` (centres undefined), the activation was inactive: 0.576%.

As to `COc1ccc(OP(C)(=O)Nc2ccccc2Br)cc1` (centres undefined), the activation is inactive: -0.321%.

With `Cc1nc2ccc3ccccc3c2o1.O=[N+]([O-])c1cc([N+](=O)[O-])c(O)c([N+](=O)[O-])c1`, the activation is inactive: -1.02%.

Regarding `CP(=O)(Nc1ccc(Cl)cc1Cl)Oc1ccccc1` (centres undefined), the activation is inactive: 0.376%.

With `CP(=O)(OCCOc1ccccc1)OCCOc1ccccc1`, the activation is inactive: -0.309%.

In the case of `COc1ccccc1OP(C)(=O)Nc1ccc(Br)cc1` (centres undefined), the activation was inactive: -0.0694%.

As for `COc1ccc(OP(C)(=O)Nc2ccccn2)cc1` (centres undefined), the activation is inactive: -0.0014%.

As to `CN(C)CCOC(=O)C(O)(c1ccccc1)C1CCCC1` (centres undefined), the activation is inactive: 0.293%.

On to `Cc1c(NP(C)(=O)Oc2ccc(C(C)C)cc2)c(=O)n(-c2ccccc2)n1C` (centres undefined), for which the activation was inactive: 0.0159%.

With `O=[N+]([O-])c1cc([N+](=O)[O-])c(Nc2ccccn2)c([N+](=O)[O-])c1`, the activation is inactive: 2.51%.

With `CP(=O)(Nc1ccccn1)Oc1ccccc1` (centres undefined), the activation was inactive: -0.681%.

`COc1ccccc1OP(C)(=O)Nc1ccc(C)cc1C` (centres undefined): the activation was inactive: -0.106%.

With `CCc1ccc(OP(C)(=O)O)cc1`, the activation is inactive: 0.796%.

`CCN(CC)CCCOC(=O)C(O)(c1ccccc1)c1ccccc1`: the activation was inactive: 0.931%.

Consider `O=[N+]([O-])c1cc([N+](=O)[O-])c(Nc2cccnc2)c([N+](=O)[O-])c1`, for which the activation was inactive: 12.7%.

As to `O=[N+]([O-])c1ccc2c(c1)C=Nc1ccccc1O2`, the activation was inactive: 0.242%.

On to `CC(C)(C)c1ccc(OP(C)(=O)Nc2ccc(SC(F)(F)F)cc2)cc1` (centres undefined), for which the activation is inactive: 1.16%.

On to `Cc1cccc(C)c1OP(C)(N)=O` (centres undefined), for which the activation is inactive: 5.4%.

As to `COc1ccccc1OP(C)(=O)Nc1ccc(C)cc1` (centres undefined), the activation is inactive: 0.0092%.

Take `Cc1ccc(NP(C)(=O)Oc2ccccc2)c(C)c1` (centres undefined): the activation was inactive: 1.04%.

On to `CCOC(=O)c1ccc(NP(C)(=O)Oc2ccccc2)cc1` (centres undefined), for which the activation is inactive: 0.742%.

For the compound `Cc1cc(C)cc(OP(C)(N)=O)c1` (centres undefined), the activation was inactive: 1.86%.

In the case of `COc1ccc(OP(C)(=O)Nc2cccc(F)c2)cc1` (centres undefined), the activation is inactive: 0.247%.

As for `CP(=S)(Nn1cnnc1)Oc1ccccc1` (centres undefined), the activation is inactive: 0.0508%.

Take `CP(=O)(Nc1ccccc1Br)Oc1ccccc1` (centres undefined): the activation was inactive: 0.91%.

Take `COc1ccccc1OP(C)(=O)Nc1ccccc1` (centres undefined): the activation was inactive: -0.17%.

With `Cc1cccc(C)c1OP(C)(=O)Nc1ccc(SC(F)(F)F)cc1` (centres undefined), the activation is inactive: 2.13%.

Consider `CP(=O)(Nc1ccc(SC(F)(F)F)cc1)Oc1ccc(Cl)cc1` (centres undefined), for which the activation is inactive: 1.46%.

For the compound `CP(=O)(Oc1ccccc1)OC(c1ccccc1)C(F)(F)F` (centres undefined), the activation is inactive: 1.25%.

Regarding `CP(=O)(NC(=O)Nc1ccccc1)Oc1ccccc1` (centres undefined), the activation was inactive: -0.926%.

For `CCc1ccc(OP(C)(=O)N2CCN(c3ccc([N+](=O)[O-])cc3)CC2)cc1` (centres undefined), the activation is inactive: 1.57%.

`Cc1cc(C)cc(OP(C)(=O)Nc2ccc(SC(F)(F)F)cc2)c1` (centres undefined): the activation was inactive: -0.126%.

For the compound `CCOC(=O)c1ccc(NP(C)(=O)Oc2ccc(OC)cc2)cc1` (centres undefined), the activation is inactive: 0.0689%.

Take `CCOP(C)(=S)SCC(=O)NC(C)C(=O)O` (centres undefined): the activation was inactive: -2.19%.

On to `CP(=O)(Nc1ccccn1)Oc1ccc(Cl)cc1` (centres undefined), for which the activation was inactive: 0.301%.

Take `O=[N+]([O-])c1cc([N+](=O)[O-])c(-n2nnc3ccccc32)c([N+](=O)[O-])c1`: the activation is inactive: 2.74%.

As to `Cc1nc2ccc3ccccc3c2s1.O=[N+]([O-])c1cc([N+](=O)[O-])c(O)c([N+](=O)[O-])c1`, the activation is inactive: 0.302%.

`CC1=C2N=C(C=C3N=C(C(C)=C4[N-][C@@](C)([C@@H]5N=C1[C@](C)(CCC(=O)NC[C@@H](C)OP(=O)([O-])O[C@H]1[C@@H](O)[C@@H](n6cnc7cc(C)c(C)cc76)O[C@@H]1CO)[C@H]5CC(N)=O)[C@@](C)(CC(N)=O)[C@@H]4CCC(N)=O)[C@@](C)(CC(N)=O)[C@@H]3CCC(N)=O)C(C)(C)[C@@H]2CCC(N)=O.[C-]#N.[Co+3]`: the activation is inactive: -1.52%.

Turning to `O=[N+]([O-])c1cc([N+](=O)[O-])c(Nc2nnnn2CCO)c([N+](=O)[O-])c1`, the activation is inactive: 1.31%.

Turning to `COc1ccccc1OP(C)(=O)Nc1c(C)cccc1C` (centres undefined), the activation is inactive: -0.456%.

With `CN1CCCCC1COC(=O)C1(O)c2ccccc2CCc2ccccc21` (centres undefined), the activation is inactive: 0.024%.

Take `CP(=O)(Nc1ccc(SC(F)(F)F)cc1)Oc1ccccc1` (centres undefined): the activation is inactive: 1.94%.

For the compound `CC1=NCCc2c1[nH]c1ccccc21.O=[N+]([O-])c1cc([N+](=O)[O-])c(O)c([N+](=O)[O-])c1`, the activation was inactive: 0.893%.

As to `COc1ccccc1OP(C)(=O)Nc1cccc(Br)c1` (centres undefined), the activation was inactive: 3.27%.

For the compound `CCOC(=O)c1ccc(NP(C)(=O)Oc2cc(C)cc(C)c2)cc1` (centres undefined), the activation is inactive: 0.105%.

Regarding `Cc1ccc(C)c(NP(C)(=O)Oc2ccccc2)c1` (centres undefined), the activation was inactive: -0.449%.

For the compound `Cc1cc(C)cc(OP(C)(=O)Nc2ccccn2)c1` (centres undefined), the activation was inactive: -0.577%.

As to `CP(=O)(Nc1cccc(Br)c1)Oc1ccccc1` (centres undefined), the activation was inactive: 0.342%.
